Results reported in patent publication US20070118999A1, “Compositions suitable for the treatment of hair comprising chelants and methods for reducing oxidative hair damage” (The Procter & Gamble Company, priority 2001, published 2007).

Assay: log Conditional Stability Constant at pH 10 with Ca
Assay type: physicochemical

diethylenetriaminepentaacetate [DTPA]
log Conditional Stability Constant (pH 10) Ca: 10.13
